# Literature values in patent US20250179584A1, “PRECISION THERAPY FOR THE TREATMENT OF CANCER” (Novartis AG, priority 2022, published 2025).
# System: metastatic melanoma
# Conditions: 2L/3L regardless of NRAS mutation after anti-PD-(L)-1 progression; literature values; cited from earlier work
substance,measurement,value
"IL-2: high-dose IL-2, systemic therapy for metastatic melanoma",ORR,16%
